Results on 29 molecules are retold here after patent US8026252B2 (priority 2005, dated 2011).

Sequences of proteins named here, by UniProt entry; tags and fusion partners are left off. A change or cut given only in a name is not applied to a line headed by its entry.
UniProt P41145: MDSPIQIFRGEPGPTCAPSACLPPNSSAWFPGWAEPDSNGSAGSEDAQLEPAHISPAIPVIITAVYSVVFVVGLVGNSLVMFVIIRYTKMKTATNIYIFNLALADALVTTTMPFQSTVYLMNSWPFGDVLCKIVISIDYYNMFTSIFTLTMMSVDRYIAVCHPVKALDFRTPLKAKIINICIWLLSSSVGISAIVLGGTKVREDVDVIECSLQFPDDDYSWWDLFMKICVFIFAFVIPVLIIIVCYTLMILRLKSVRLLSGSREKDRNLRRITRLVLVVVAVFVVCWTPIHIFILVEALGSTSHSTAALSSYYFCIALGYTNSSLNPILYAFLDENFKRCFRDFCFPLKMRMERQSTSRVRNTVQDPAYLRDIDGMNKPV

Several values for one entry are separate records, joined by “and”; a condition that tells them apart may be missing. Equal entries are not always repeated. Where two headings read alike, the source gives them in different places. Some results are limits rather than exact numbers.

Assay [1] concerns the target T1, human δ opioid receptor (Homo sapiens, UniProt P41143). In words: biochemical. The settings on record: [3H]Naltrindole (δ).
The target in assay [2] is T2, human κ opioid receptor (Homo sapiens, UniProt P41145). The assay is described as follows: biochemical. Particulars: [3H]U69,593 (κ).
Assay [3] deals with T1, human δ opioid receptor. The settings on record: read-out: [3H]Naltrindole (δ).
The target of assay [4] is T2, human κ opioid receptor. The settings on record: read-out: [3H]U69,593 (κ).

Turning to `CC[C@@]12CCN(CC3CC3)C(C(=O)c3ccc(C(=O)NCCc4ccc(-c5ccccc5)cc4)cc31)[C@@H]2C` (mixture of isomers) [Example 21, (±)-3-(Cyclopropylmethyl)-6-ethyl-1,2,3,4,5,6-hexaahydro-cis-11-methyl-N-(2-[1,1′-biphenyl]-4-ylethyl)-1-oxo-2,6-methano-3-benzazocine-8-carboxamide], the Ki at human δ opioid receptor [1] turned out to be 13 ± 2.5 nM; on human κ opioid receptor [2] it was 5.1 ± 0.18 nM.

In the case of `CC1[C@@H]2Cc3ccc(C(=O)NCCc4ccccc4)cc3[C@@]1(C)CCN2CC1CC1` (mixture of isomers) [Example 11, (±)-3-(Cyclopropylmethyl)-1,2,3,4,5,6-hexahydro-cis-6,11-dimethyl-N-(2-phenylethyl)-2,6-methano-3-benzazocine-8-carboxamide], the Ki on human δ opioid receptor [3] turned out to be 59 ± 6.6 nM; on human κ opioid receptor [4], 1.7 ± 0.18 nM.

Consider `CC1[C@@H]2Cc3ccc(C(=O)NCCCc4ccccc4)cc3[C@@]1(C)CCN2CC1CC1` (mixture of isomers) [Example 12, (±)-3-(Cyclopropylmethyl)-1,2,3,4,5,6-hexahydro-cis-6,11-dimethyl-N-(3-phenylpropyl)-2,6-methano-3-benzazocine-8-carboxamide], for which the Ki came out at 47 ± 1.6 nM on human δ opioid receptor [3] and 3 ± 0.35 nM at human κ opioid receptor [4].

`CC1[C@@H]2Cc3ccc(C(=O)NCCc4ccc(Cc5ccccc5)cc4)cc3[C@@]1(C)CCN2CC1CC1` (mixture of isomers) [Example 27, (±)-3-(Cyclopropylmethyl)-1,2,3,4,5,6-hexahydro-cis-6,11-dimethyl-N-(4-benzylphenethyl)-2,6-methano-3-benzazocine-8-carboxamide]: the Ki at human δ opioid receptor [3] is 5.9 ± 0.7 nM; on human κ opioid receptor [4], 1.6 ± 0.27 nM.

Take `CC1[C@@H]2Cc3ccc(C(=O)NCCc4cccc(Br)c4)cc3[C@@]1(C)CCN2CC1CC1` (mixture of isomers) [Example 30, (±)-3-(Cyclopropylmethyl)-1,2,3,4,5,6-hexahydro-cis-6,11-dimethyl-N-(3-bromophenethyl)-2,6-methano-3-benzazocine-8-carboxamide]: on human δ opioid receptor [3], the Ki came to 3.5 ± 0.19 nM.

With `CC1[C@@H]2Cc3ccc(C(=O)NCCc4ccc(Oc5ccccc5)cc4)cc3[C@@]1(C)CCN2CC1CC1` (mixture of isomers) [Example 33, (±)-3-(Cyclopropylmethyl)-1,2,3,4,5,6-hexahydro-cis-6,11-dimethyl-N-(4-phenoxyphenethyl)-2,6-methano-3-benzazocine-8-carboxamide], the results for the Ki on human δ opioid receptor [3] and on human κ opioid receptor [4] were 3.2 ± 0.3 nM and 1.6 ± 0.3 nM, respectively.

Turning to `CC1[C@@H]2Cc3ccc(C(=O)NCCc4cccc(Oc5ccccc5)c4)cc3[C@@]1(C)CCN2CC1CC1` (mixture of isomers) [Example 34, (±)-3-(Cyclopropylmethyl)-1,2,3,4,5,6-hexahydro-cis-6,11-dimethyl-N-(3-phenoxyphenethyl)-2,6-methano-3-benzazocine-8-carboxamide], the Ki at human δ opioid receptor [3] was found to be 95 ± 6.7 nM; on human κ opioid receptor [4], 13 ± 0.67 nM.

`CC1[C@@H]2Cc3ccc(C(=O)NCCc4ccccc4Oc4ccccc4)cc3[C@@]1(C)CCN2CC1CC1` (mixture of isomers) [Example 35, (±)-3-(Cyclopropylmethyl)-1,2,3,4,5,6-hexahydro-cis-6,11-dimethyl-N-(2-phenoxyphenethyl)-2,6-methano-3-benzazocine-8-carboxamide]: the figures for the Ki on human δ opioid receptor [3] and at human κ opioid receptor [4] were 12 ± 1.9 nM and 0.85 ± 0.07 nM, respectively.

Take `CC1[C@@H]2Cc3ccc(C(=O)NCCc4ccc5ccccc5c4)cc3[C@@]1(C)CCN2CC1CC1` (mixture of isomers) [Example 37, (±)-3-(Cyclopropylmethyl)-1,2,3,4,5,6-hexahydro-cis-6,11-dimethyl-N-(2-(naphthalen-2-yl)ethyl)-2,6-methano-3-benzazocine-8-carboxamide]: the Ki on human δ opioid receptor [3] was determined as 0.9 ± 0.02 nM; at human κ opioid receptor [4], 0.2 ± 0.056 nM.

With `CC1[C@@H]2Cc3ccc(C(=O)NCCc4cccc5ccccc45)cc3[C@@]1(C)CCN2CC1CC1` (mixture of isomers) [Example 40, (±)-3-(Cyclopropylmethyl)-1,2,3,4,5,6-hexahydro-cis-6,11-dimethyl-N-(2-(naphthalen-1-yl)ethyl)-2,6-methano-3-benzazocine-8-carboxamide], the Ki at human δ opioid receptor [3] is 24 ± 1.2 nM.

In the case of `CC1[C@@H]2Cc3ccc(C(=O)NCCc4ccccc4Br)cc3[C@@]1(C)CCN2CC1CC1` (mixture of isomers) [Example 52, (±)-3-(Cyclopropylmethyl)-1,2,3,4,5,6-hexahydro-cis-6,11-dimethyl-N-(2-bromophenethyl)-2,6-methano-3-benzazocine-8-carboxamide], the Ki on human δ opioid receptor [3] came to 150 ± 6.2 nM; at human κ opioid receptor [4], 19 ± 1.3 nM.

`CC1C2Cc3ccc(C(=O)NCCCCCc4ccccc4)cc3C1(C)CCN2CC1CC1` (racemic) [Example 61]: the Ki on human δ opioid receptor [1] stood at 7.9 ± 0.12 nM; at human κ opioid receptor [2], 1.5 ± 0.1 nM.

Turning to `CC1C2Cc3ccc(C(=O)NCCc4cccnc4)cc3C1(C)CCN2CC1CC1` (racemic) [Example 69], the Ki at human δ opioid receptor [1] came to 54 ± 1.3 nM; on human κ opioid receptor [2] it was 97 ± 3.1 nM.

As to `CC(NC(=O)c1ccc2c(c1)C1(C)CCN(CC3CC3)C(C2)C1C)c1ccccc1` (single isomer, unassigned) [Example 67], the Ki is more than 10000 nM on human δ opioid receptor [1] and 130 ± 4 nM at human κ opioid receptor [2].

As for `CC(NC(=O)c1ccc2c(c1)C1(C)CCN(CC3CC3)C(C2)C1C)c1ccccc1` (single isomer, unassigned) [Example 68], the Ki on human κ opioid receptor [2] turned out to be 64 ± 4.3 nM.

On to `O=C(NCCc1ccc(-c2ccccc2)cc1)c1ccc2c3c1OC1C(=O)CCC4(O)C(C2)N(CC2CC2)CCC314` (single isomer, unassigned; (-)) [Example 71, (−)-Q-naltrexone], for which the results for the Ki at human δ opioid receptor [1] and on human κ opioid receptor [2] were 34 ± 4.1 nM and 22 ± 1.4 nM, respectively.

With `CC1C2C(=O)c3ccc(C(=O)NCCc4ccc(-c5ccccc5)cc4)cc3C1(C)CCN2CC1CC1` (stereo not drawn) [Example 20], the values for the Ki on human δ opioid receptor [1] and at human κ opioid receptor [2] were 3.9 ± 1.4 nM and 1.3 ± 0.072 nM, respectively.

In the case of `CC(CNC(=O)c1ccc2c(c1)[C@@]1(C)CCN(CC3CC3)C(C2)[C@@H]1C)c1ccc(-c2ccccc2)cc1` (stereo partly drawn) [Example 46], the Ki at human δ opioid receptor [1] was 12 ± 0.11 nM; at human κ opioid receptor [2], 15 ± 1 nM.

`CC(Cc1ccc(-c2ccccc2)cc1)NC(=O)c1ccc2c(c1)[C@@]1(C)CCN(CC3CC3)C(C2)[C@@H]1C` (stereo partly drawn) [Example 47]: the Ki at human δ opioid receptor [1] was found to be 7.6 ± 0.51 nM; at human κ opioid receptor [2] it was 11 ± 0.24 nM.

Consider `COc1ccc(-c2ccc(CCNC(=O)c3ccc4c(c3)[C@@]3(C)CCN(CC5CC5)C(C4)[C@@H]3C)cc2)cc1` [Example 48], for which the Ki came to 0.18 ± 0.022 nM at human δ opioid receptor [3] and 1.5 ± 0.1 nM on human κ opioid receptor [4].

In the case of `C[C@H]1C2Cc3ccc(C(=O)NCCc4ccc(-c5ccc(Cl)cc5)cc4)cc3[C@@]1(C)CCN2CC1CC1` [Example 49], the Ki on human δ opioid receptor [3] amounted to 0.71 ± 0.046 nM; on human κ opioid receptor [4], 3.2 ± 0.67 nM.

Take `C[C@H]1C2Cc3ccc(C(=O)NCCc4ccc(-c5cccc(Cl)c5)cc4)cc3[C@@]1(C)CCN2CC1CC1` [Example 50]: the Ki at human δ opioid receptor [1] amounted to 1.3 ± 0.19 nM; at human κ opioid receptor [2], 3.8 ± 0.13 nM.

Regarding `Cc1ccc(-c2ccc(CCNC(=O)c3ccc4c(c3)[C@@]3(C)CCN(CC5CC5)C(C4)[C@@H]3C)cc2)cc1` [Example 51], the Ki turned out to be 0.72 ± 0.027 nM at human δ opioid receptor [3] and 3.3 ± 0.2 nM at human κ opioid receptor [4].

Turning to `C[C@H]1C2Cc3ccc(C(=O)NCCc4ccc(C(=O)NCCc5ccc(Br)cc5)cc4)cc3[C@@]1(C)CCN2CC1CC1` [Example 53], the Ki on human δ opioid receptor [1] was determined as 30 ± 1.8 nM; at human κ opioid receptor [2] it was 5 ± 0.36 nM.

For the molecule `C[C@H]1C2Cc3ccc(C(=O)NCCCCc4ccccc4)cc3[C@@]1(C)CCN2CC1CC1` [Example 60], the Ki at human δ opioid receptor [1] worked out at 7.1 ± 0.39 nM; at human κ opioid receptor [2] it was 0.082 ± 0.0026 nM.

Turning to `O=C(NCCc1ccc(-c2ccccc2)cc1)c1ccc2c(c1)[C@@]13CCCC[C@@]1(O)[C@@H](C2)N(CC1CCC1)CC3` [Example 79, (−)-Q-butorphanol], the Ki came to 0.45 ± 0.039 nM at human δ opioid receptor [1] and 3.9 ± 0.47 nM on human κ opioid receptor [2].

Regarding `O=C1CC[C@@]2(O)[C@H]3Cc4ccc(C(=O)NCCc5ccc(-c6ccccc6)cc5)c(O)c4[C@@]2(CCN3CC2CC2)C1` [Example 81, Q-naltrexone ring opened], the values for the Ki on human δ opioid receptor [1] and on human κ opioid receptor [2] were 3.7 ± 0.2 nM and 1.9 ± 0.15 nM, respectively.

As to “(+)-3-(Cyclopropylmethyl)-1,2,3,4,5,6-hexahydro-cis-6,11-dimethyl-N-(2-[1,1′-biphenyl]-4-ylethyl)-2,6-methano-3-benzazocine-8-carboxamide [Example 17]”, at human κ opioid receptor [4], the Ki was 11 nM and 8.5 nM.

For “(±)-3-(Cyclopropylmethyl)-1,2,3,4,5,6-hexahydro-cis-6,11-dimethyl-N-(2-[1,1′-biphenyl]-4-ylethyl)-2,6-methano-3-benzazocine-8-carboxamide [Example 15]”, the Ki on human δ opioid receptor [3] amounted to 0.94 ± 0.045 nM; at human κ opioid receptor [4], 0.33 ± 0.015 nM.
